## Membrane permeability of cyclic peptides

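Lipid, pH, incubation time, direction and concentration are not recorded in the data file. Other peptides of the study may be missing here. Peptides that the database sets to -10, its floor, are left out.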

PAMPA is the parallel artificial membrane permeability assay, which has no cells and reads passive diffusion. Permeability is in 10^-6 cm/s, converted from the database's log10 values; higher is more permeable.

CCCN1CC(=O)N[C@@H](CC(C)C)C(=O)N(C)[C@H](CC(C)C)C(=O)N2CCC[C@H]2C(=O)N(Cc2ccccc2)CC(=O)N[C@@H](Cc2ccccc2)C1=O is reported with PAMPA 10 × 10^-6 cm/s. Listed for CC(C)C[C@H]1NC(=O)C[C@H](Cc2ccccc2)NC(=O)[C@H](Cc2ccccc2)NC(=O)CN(Cc2ccccc2)C(=O)[C@H]2CCCN2C(=O)[C@H](CC(C)C)N(C)C1=O: PAMPA 7.4 × 10^-6 cm/s. Listed for CCCN1CC(=O)N[C@@H](CC(C)C)C(=O)N(C)[C@@H](CC(C)C)C(=O)N2CCC[C@@H]2C(=O)N(C)[C@@H](CC(C)C)C(=O)N[C@@H](Cc2ccccc2)C1=O: PAMPA 9.8 × 10^-6 cm/s. Listed for CCCN1CC(=O)N(Cc2ccccc2)CC(=O)N[C@@H](Cc2ccccc2)CC(=O)N2CCC[C@H]2C(=O)N[C@H](CC(C)C)C(=O)N[C@@H](Cc2ccccc2)C1=O: PAMPA 1.4 × 10^-6 cm/s. Listed for CC(C)C[C@H]1NC(=O)[C@@H]2CCCN2C(=O)CN(Cc2ccccc2)C(=O)[C@H](CC(C)C)N(C)C(=O)C[C@H](Cc2ccccc2)NC(=O)[C@H](Cc2ccccc2)NC1=O: PAMPA 1.2 × 10^-6 cm/s.

The entry for CCCN1CC(=O)N(C)[C@H](CC(C)C)C(=O)N(Cc2ccccc2)CC(=O)N2CCC[C@H]2C(=O)N(Cc2ccccc2)CC(=O)N[C@@H](Cc2ccccc2)C1=O lists PAMPA 2.6 × 10^-6 cm/s. Listed for CC(C)C[C@H]1NC(=O)[C@@H]2CCCN2C(=O)C[C@H](Cc2ccccc2)NC(=O)CN(Cc2ccccc2)C(=O)[C@H](C)NC(=O)[C@H]2CCCN2C(=O)[C@H](Cc2ccccc2)NC1=O: PAMPA 0.11 × 10^-6 cm/s. For CC(C)C[C@@H]1NC(=O)[C@@H]2CCCN2C(=O)C[C@H](Cc2ccccc2)NC(=O)CN(Cc2ccccc2)C(=O)[C@H](C)N(C)C(=O)[C@H]2CCCN2C(=O)[C@H](Cc2ccccc2)NC1=O the data give PAMPA 0.63 × 10^-6 cm/s. CC(C)C[C@H]1C(=O)N(Cc2ccccc2)CC(=O)N2CCC[C@@H]2C(=O)N(Cc2ccccc2)CC(=O)N[C@@H](Cc2ccccc2)C(=O)N[C@@H](C)C(=O)N1C is reported with PAMPA 2.1 × 10^-6 cm/s. CC(C)C[C@H]1NC(=O)[C@H](C)NC(=O)[C@H]2CCCN2C(=O)[C@H](Cc2ccccc2)NC(=O)CN(Cc2ccccc2)C(=O)[C@@H]2CCCN2C(=O)C[C@H](Cc2ccccc2)NC1=O has PAMPA 0.59 × 10^-6 cm/s.

The entry for CC(C)C[C@@H]1NC(=O)C[C@H](Cc2ccccc2)NC(=O)[C@H](Cc2ccccc2)NC(=O)CN(Cc2ccccc2)C(=O)[C@@H]2CCCN2C(=O)CN(Cc2ccccc2)C1=O lists PAMPA 1.7 × 10^-6 cm/s. CC(C)C[C@@H]1NC(=O)[C@@H]2CCCN2C(=O)C[C@H](Cc2ccccc2)NC(=O)CN(Cc2ccccc2)C(=O)[C@@H](C)N(C)C(=O)[C@H](Cc2ccccc2)NC1=O is reported with PAMPA 1.3 × 10^-6 cm/s. For C[C@H]1C(=O)N(Cc2ccccc2)CC(=O)N(Cc2ccccc2)CC(=O)N2CCC[C@H]2C(=O)N(Cc2ccccc2)CC(=O)N[C@@H](Cc2ccccc2)C(=O)N1C the data give PAMPA 1.9 × 10^-6 cm/s. CCCN1CC(=O)N(Cc2ccccc2)CC(=O)N(Cc2ccccc2)CC(=O)N2CCC[C@H]2C(=O)N(Cc2ccccc2)CC(=O)N[C@@H](Cc2ccccc2)C1=O is reported with PAMPA 1.3 × 10^-6 cm/s. The entry for CCCN1CC(=O)N[C@@H](CC(C)C)C(=O)N(Cc2ccccc2)CC(=O)N2CCC[C@@H]2C(=O)N(Cc2ccccc2)CC(=O)N[C@@H](Cc2ccccc2)C1=O lists PAMPA 6.6 × 10^-6 cm/s.

CCCN1CC(=O)N(C)[C@H](CC(C)C)C(=O)N(Cc2ccccc2)CC(=O)N2CCC[C@@H]2C(=O)N[C@H](CC(C)C)C(=O)N[C@@H](Cc2ccccc2)C1=O is reported with PAMPA 4.7 × 10^-6 cm/s. The entry for CC(C)C[C@H]1NC(=O)C[C@H](Cc2ccccc2)NC(=O)[C@@H]2CCCN2C(=O)[C@H](Cc2ccccc2)NC(=O)CN(Cc2ccccc2)C(=O)[C@H]2CCCN2C(=O)CN(Cc2ccccc2)C1=O lists PAMPA 0.85 × 10^-6 cm/s. For CC(C)C[C@H]1C(=O)N[C@@H](Cc2ccccc2)C(=O)N[C@H](C)C(=O)N(Cc2ccccc2)CC(=O)N[C@@H](Cc2ccccc2)CC(=O)N2CCC[C@H]2C(=O)N1C the data give PAMPA 3 × 10^-6 cm/s. O=C1CN(Cc2ccccc2)C(=O)C[C@H](Cc2ccccc2)NC(=O)[C@H]2CCCN2C(=O)[C@H](Cc2ccccc2)NC(=O)CN(Cc2ccccc2)C(=O)[C@@H]2CCCN2C(=O)C[C@H](Cc2ccccc2)N1 is reported with PAMPA 0.81 × 10^-6 cm/s. For CC(C)C[C@H]1NC(=O)[C@H]2CCCN2C(=O)C[C@H](Cc2ccccc2)NC(=O)CN(Cc2ccccc2)C(=O)C[C@H](Cc2ccccc2)NC(=O)[C@H](Cc2ccccc2)NC1=O the data give PAMPA 1.1 × 10^-6 cm/s.

CCCN1CC(=O)N(C)[C@@H](CC(C)C)C(=O)N[C@@H](CC(C)C)C(=O)N2CCC[C@@H]2C(=O)N(Cc2ccccc2)CC(=O)N[C@@H](Cc2ccccc2)C1=O is reported with PAMPA 5.6 × 10^-6 cm/s. CC(C)C[C@@H]1C(=O)N[C@@H](Cc2ccccc2)CC(=O)N2CCC[C@H]2C(=O)N(Cc2ccccc2)CC(=O)N[C@@H](Cc2ccccc2)C(=O)N[C@@H](Cc2ccccc2)CC(=O)N1C is reported with PAMPA 2.8 × 10^-6 cm/s. O=C1CN(Cc2ccccc2)C(=O)C[C@H](Cc2ccccc2)NC(=O)[C@H](Cc2ccccc2)NC(=O)CN(Cc2ccccc2)C(=O)[C@H]2CCCN2C(=O)C[C@H](Cc2ccccc2)N1 is reported with PAMPA 1.9 × 10^-6 cm/s.

Again, the 3 entries with the lowest PAMPA:

Listed for CC(C)C[C@H]1NC(=O)[C@@H]2CCCN2C(=O)C[C@H](Cc2ccccc2)NC(=O)CN(Cc2ccccc2)C(=O)[C@H](C)NC(=O)[C@H]2CCCN2C(=O)[C@H](Cc2ccccc2)NC1=O: PAMPA 0.11 × 10^-6 cm/s.
Listed for CC(C)C[C@H]1NC(=O)[C@H](C)NC(=O)[C@H]2CCCN2C(=O)[C@H](Cc2ccccc2)NC(=O)CN(Cc2ccccc2)C(=O)[C@@H]2CCCN2C(=O)C[C@H](Cc2ccccc2)NC1=O: PAMPA 0.59 × 10^-6 cm/s.
Listed for CC(C)C[C@@H]1NC(=O)[C@@H]2CCCN2C(=O)C[C@H](Cc2ccccc2)NC(=O)CN(Cc2ccccc2)C(=O)[C@H](C)N(C)C(=O)[C@H]2CCCN2C(=O)[C@H](Cc2ccccc2)NC1=O: PAMPA 0.63 × 10^-6 cm/s.

Collected by the curators of CycPeptMPDB (Li et al. 2023) from Townsend et al. 2020, doi:10.26434/chemrxiv.13335941.v1.